The entries are a selection whose mix differs from that of the whole data set. Calls of active or inactive are those of the source. Rule as the data show it: active = inhibition above about 16% (passing the limit was not always enough); inconclusive = no clear call, values can overlap the other calls; inactive = below that.

The test system of the assay is UDP-N-acetylbacillosamine N-acetyltransferase PglD (Campylobacter jejuni). Nature of the assay: blockers of PglD enzyme activity – biochemical, DTNB colorimetric, single point, primary screen (AID 602405). The following applies: purified PglD enzyme, DTNB colorimetric CoA detection; at 12.5 µM; active compounds read high.
For orientation: inhibition means the change of the read-out against control, counted positive when it falls. Turning to `CCC(=O)N(c1ccccc1)C1(COC)CCN(CCc2cccs2)CC1`, the inhibition is inactive: -1.73%.

Take `CCC(=O)N(c1ccccc1)C1(COC)CCN(CCn2nnn(CC)c2=O)CC1`: the inhibition is inactive: 1.66%.
